Experimental data from article PMC12015242, “A universal cannabinoid CB1 and CB2 receptor TR-FRET kinetic ligand-binding assay” (Frontiers in Pharmacology, 2025).

Sequences of proteins named here, by UniProt entry; tags and fusion partners are left off.
UniProt P34972, whole entry: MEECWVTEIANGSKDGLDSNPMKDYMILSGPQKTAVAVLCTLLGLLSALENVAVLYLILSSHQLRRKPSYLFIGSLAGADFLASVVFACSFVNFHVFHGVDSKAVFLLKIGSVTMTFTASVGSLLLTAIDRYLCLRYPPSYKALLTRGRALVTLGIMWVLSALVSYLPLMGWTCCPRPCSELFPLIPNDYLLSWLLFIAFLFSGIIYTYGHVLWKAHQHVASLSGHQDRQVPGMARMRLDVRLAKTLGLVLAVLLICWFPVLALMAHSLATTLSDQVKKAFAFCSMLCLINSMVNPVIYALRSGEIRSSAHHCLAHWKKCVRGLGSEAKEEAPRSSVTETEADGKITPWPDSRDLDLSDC

Experiments:
human CB2R (SNAP-CB2) [1] = target: T1, human CB2R (SNAP-CB2) (Homo sapiens, UniProt P34972); test: biochemical
human CB2R (SNAP-CB2) [2] = target: T1, human CB2R (SNAP-CB2); test: biochemical; assay type: binding; set-up: truncated CB1R (CB1R91-472) and full-length CB2R (CB2R1–360); 5HT3A signal peptide (N, cleaved yes); expressed in transfected cells; membranes; conditions: 37°C, D77 900 nM, 15-min incubation

## CCCCC/C=C\C/C=C\C/C=C\C/C=C\CCCC(=O)NCCO [Anandamide, anandamide]
Human CB2R (SNAP-CB2) [1]; pK d (kinetic), 37°C
  Kd: 631 nM
Human CB2R (SNAP-CB2) [1]; pKd (kinetic), 25°C
  Kd: 871 nM
Human CB2R (SNAP-CB2) [2]
  Ki: 776 nM
